Experimental data from ChEMBL document CHEMBL1148293, “10-Ketomorphinan and 3-substituted-3-desoxymorphinan analogues as mixed kappa and micro opioid ligands: synthesis and biological evaluation of their binding affinity at opioid receptors” (J Med Chem, 2004).

Chains of the proteins cited; added tags and fusions are not shown. Lines headed by an entry give the natural chain unless they say otherwise; changes in a name come on top.
UniProt P41145: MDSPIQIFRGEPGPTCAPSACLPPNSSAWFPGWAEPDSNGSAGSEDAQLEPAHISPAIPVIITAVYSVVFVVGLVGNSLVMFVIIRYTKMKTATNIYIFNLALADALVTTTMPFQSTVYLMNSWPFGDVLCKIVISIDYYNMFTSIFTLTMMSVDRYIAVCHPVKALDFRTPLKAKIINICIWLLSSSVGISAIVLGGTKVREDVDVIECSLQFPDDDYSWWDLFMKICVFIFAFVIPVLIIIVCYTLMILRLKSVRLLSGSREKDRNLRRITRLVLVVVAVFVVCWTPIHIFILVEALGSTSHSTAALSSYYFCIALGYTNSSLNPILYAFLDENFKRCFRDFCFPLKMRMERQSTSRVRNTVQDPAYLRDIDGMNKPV
UniProt P97266, whole entry: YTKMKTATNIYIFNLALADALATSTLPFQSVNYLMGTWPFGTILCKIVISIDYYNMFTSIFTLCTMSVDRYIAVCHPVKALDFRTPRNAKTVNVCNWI

Experiments:
[1] = target: Opioid receptors; delta & kappa (UniProt P41145+P41143); assay: Selectivity ratio expressed as Ki of delta opioid receptor to that of kappa opioid receptor.; assay type: protein assay; conditions: Cavia porcellus
[2] = test system: Opioid receptors; mu & delta; assay: Selectivity ratio expressed as Ki of delta opioid receptor to that of mu opioid receptor.; assay type: protein assay; conditions: Cavia porcellus
Mu-type opioid receptor = Mu-type opioid receptor (Cavia porcellus, UniProt P97266); assay: Binding affinity against opioid receptor mu 1 using [3H]DAMGO as radioligand in guinea pig brain membranes.; assay type: cell membranes

Oc1ccc2c(c1)[C@@]13CCCC[C@H]1[C@@H](C2)N(CC1CC1)CC3 [CYCLORPHAN]
Selectivity [1]: 56 | Selectivity [2]: 31

NC(=O)c1ccc2c(c1)[C@@]13CCCC[C@H]1[C@@H](C2)N(CC1CCC1)CC3
Selectivity [1]: 46 | Selectivity [2]: 40 | Ki (Mu-type opioid receptor): 0.1 nM
